# Source: IntAct's records for PubMed 26455799
# B1: ADP-ribosylation factor-like protein 3 (Mus musculus), Q9WUL7 (parent)
# chain: MGLLSILRKLKSAPDQEVRILLLGLDNAGKTTLLKQLASEDISHITPTQGFNIKSVQSQGFKLNVWDIGGQRKIRPYWRSYFENTDILIYVIDSADRKRFEETGQELTELLEEEKLSCVPVLIFANKQDLLTAAPASEIAEGLNLHTIRDRVWQIQSCSALTGEGVQDGMNWVCKNVNAKKK
# Variants of: B1
# Settings: with cfa36_mouse Cfap36, Q8C6E0
row,Variant,effect of a mutation on the interaction
1,F51A,decreasing interaction strength
2,Y81A,decreasing interaction strength
3,L10D,decreasing interaction strength
4,L7D,decreasing interaction strength
5,L3D,decreasing interaction strength
6,L4D,decreasing interaction strength
